Consider 1 molecule from ChEMBL document CHEMBL1126726 (J Med Chem, 1993).

The chains behind the UniProt entries cited, without tags or fusion partners.
UniProt P08908, whole entry: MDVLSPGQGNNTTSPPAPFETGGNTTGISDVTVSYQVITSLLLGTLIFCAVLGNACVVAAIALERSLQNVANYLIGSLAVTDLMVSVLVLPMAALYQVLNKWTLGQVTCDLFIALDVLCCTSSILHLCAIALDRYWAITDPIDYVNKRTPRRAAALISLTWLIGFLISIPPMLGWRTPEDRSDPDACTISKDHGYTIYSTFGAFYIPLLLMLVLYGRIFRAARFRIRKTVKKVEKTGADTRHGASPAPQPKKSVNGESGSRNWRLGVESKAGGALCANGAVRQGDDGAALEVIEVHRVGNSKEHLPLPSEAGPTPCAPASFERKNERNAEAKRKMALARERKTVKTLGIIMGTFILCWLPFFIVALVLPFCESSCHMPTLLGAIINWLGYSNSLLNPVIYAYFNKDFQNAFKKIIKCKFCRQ

The target in this experiment is 5-hydroxytryptamine receptor 1A (Homo sapiens) (UniProt P08908). To be noted: Sus scrofa; Hippocampus.

As for `CNS(=O)(=O)Cc1ccc2[nH]cc(CCN(C)C)c2c1`, the negative logarithm of the KD (pKD) (commonly the KD on a negative log10 scale, so that one unit is a factor of ten) was 5.5.
